Each structure is given as a SMILES string. Several values for one entry are separate records, joined by “and”; a condition that tells them apart may be missing. Equal values may be shown once.

The values below come from PMC10831071, “Reaction hijacking inhibition of Plasmodium falciparum asparagine tRNA synthetase” (Nature Communications, 2024).

One test has as its target T1, HsAsnRS (Homo sapiens, UniProt O43776).
T1 construct: HsAsnRS (residues M1–P548) and CDHsAsnRS (residues A98–P548); His6 (N, cleaved yes); made in house; host or cells: E. coli BL21 (DE3), pET11a
T1 sequence (O43776 1-548): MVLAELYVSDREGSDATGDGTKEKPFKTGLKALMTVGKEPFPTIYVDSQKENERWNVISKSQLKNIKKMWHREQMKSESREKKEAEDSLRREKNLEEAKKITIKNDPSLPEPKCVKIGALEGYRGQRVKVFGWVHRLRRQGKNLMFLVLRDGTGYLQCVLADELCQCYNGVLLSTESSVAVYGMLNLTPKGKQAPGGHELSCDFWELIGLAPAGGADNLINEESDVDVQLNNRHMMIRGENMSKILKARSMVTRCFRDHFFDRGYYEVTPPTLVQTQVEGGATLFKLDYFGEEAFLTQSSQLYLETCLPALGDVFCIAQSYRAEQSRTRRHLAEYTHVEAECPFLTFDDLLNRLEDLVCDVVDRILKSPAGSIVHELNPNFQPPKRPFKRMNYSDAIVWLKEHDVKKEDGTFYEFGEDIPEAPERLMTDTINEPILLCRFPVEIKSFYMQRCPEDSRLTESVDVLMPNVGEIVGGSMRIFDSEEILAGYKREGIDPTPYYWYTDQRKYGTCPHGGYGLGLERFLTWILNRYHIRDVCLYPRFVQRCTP
Description: ATP consumption assay (Kinase-Glo), HsAsnRS. The settings on record: for ATP consumption: HsAsnRS, normalised to 1 (Fig 3D). The format is biochemical. Background: In Kinase-Glo more light means more ATP remaining.

Test [1] deals with HepG2 mammalian cell line (HepG2-A16-CD81-EGFP). Nature of the test: HepG2 cytotoxicity (CellTiterGlo). The format is cell-based, human. On the procedure:
The cells were then infected with freshly dissected luciferase-expressing P. berghei (PbLuc) (4 × 10^3) sporozoites. After 48 h of incubation with the compound, the viability of P. berghei exoerythrocytic forms (EEF) was measured by bioluminescence using Bright Glow reagent (Promega). HepG2 cytotoxicity was assessed by adding CellTiterGlo reagent (Promega). The plates were read in a PHERAstar FSX reader (BMG LABTECH).
(In general: ATP-based viability assays read luminescence as a measure of living cells.)

The test system of test [2] is PfAlaRS cKD P. falciparum line. The format is cell-based, Plasmodium falciparum. Particulars: PfAlaRS knockdown vs 500 nM aTc. An excerpt:
(§1) Conditional knockdown (cKD) P. falciparum lines were generated for the cytosolic AsnRS (PF3D7_0211800), cytosolic AlaRS (PF3D7_1367700), cytosolic GlyRS (GlyRS; PF3D7_1420400), PfNT4 (PF3D7_0103200), P. falciparum glutamate dehydrogenase 3 (GDH3; PF3D7_0802000), and P. falciparum carbonic anhydrase (CA, PF3D7_1140000) by fusing the coding sequences and non-coding RNA aptamer sequences in the 3’-UTR, permitting translation regulation using the TetR-DOZI system[59],[60]. Gene editing was achieved by CRISPR/SpCas9 using the linear pSN054 vector that contains cloning sites for the left homology region (LHR) and the right homology region (RHR) as well a target-specific guide RNA under control of the T7 promoter. Cloning into the pSN054 donor vector was carried out following described procedures[59],[60]. The vector includes V5-2xHA epitope tags, a 10x tandem array of TetR aptamers upstream of an Hsp86 3’UTR, and a multicistronic cassette for expression of TetR-DOZI (translation regulation), blasticidin S-deaminase (selection marker) and a Renilla luciferase (RLuc) reporter. All primer and synthetic fragment sequences that were generated using the BioXP™ system and IDT gBlocks™ are included in Supplementary Table 9. The final constructs were sequence-verified and further confirmed by restriction digests.
(§2) Transfection into Cas9- and T7 RNA polymerase-expressing NF54 parasites was carried out by pre-loading red blood cells (RBCs) with the donor vector[61]. […] Cultures were monitored by Giemsa smears and RLuc measurements.
(§3) DMSO- and dihydroartemisinin-treatment (0.5 µM) served as reference controls.

Test [3] deals with PfAsnRS cKD P. falciparum line. Type of test: cell-based, Plasmodium falciparum. The settings on record: PfAsnRS knockdown vs 500 nM aTc.
Excerpt: as §1, §2, §3

The subject of test [4] is PfCA cKD P. falciparum line. Type of test: cell-based, Plasmodium falciparum. The settings on record: PfCA knockdown vs 500 nM aTc.
Excerpt: as §1, §2, §3

Test [5] concerns PfGDH3 cKD P. falciparum line. The format is cell-based, Plasmodium falciparum. Particulars: PfGDH3 knockdown vs 500 nM aTc.
Excerpt: as §1, §2, §3

The subject of test [6] is PfGlyRS cKD P. falciparum line. Type of test: cell-based, Plasmodium falciparum. Particulars: PfGlyRS knockdown vs 500 nM aTc.
Excerpt: as §1, §2, §3

The subject of test [7] is PfNT4 cKD P. falciparum line. The format is cell-based, Plasmodium falciparum. Particulars: PfNT4 knockdown vs 500 nM aTc.
Excerpt: as §1, §2, §3

As usually defined, the IC50 is the midpoint of a concentration-inhibition curve. The low end stands for greater potency, the high end for weaker potency. `Nc1ncnc2c1ncn2[C@@H]1O[C@H](COS(N)(=O)=O)[C@@H](O)[C@H]1O` [AMS, adenosine 5’-O-sulfamate, reference compound] gave an IC50 against HsAsnRS of 26 µM. For the same molecule, the ATP consumption at HsAsnRS (0.1 μM AMS) is 0.994 and 1; at HsAsnRS (1 μM AMS), 0.9311 and 0.9198 and 0.9615; at HsAsnRS (3 μM AMS) it was 0.8273 and 0.8247 and 0.8508; on HsAsnRS (10 μM AMS) it was 0.619 and 0.6273 and 0.6831; on HsAsnRS (30 μM AMS) it was 0.4465 and 0.4816 and 0.5434; on HsAsnRS (100 μM AMS) it was 0.3002 and 0.3591 and 0.4295. In addition, the ATP consumption at HsAsnRS (200 μM AMS) is 0.2507 and 0.3116 and 0.3738.

As for `Nc1ncnc2cc(-c3cccc(S(N)(=O)=O)c3)sc12` [OSM-S-106], in test [1], the “selectivity index (IC50 HepG2/IC50 PbLuc)” value was “over 140 fold”. Besides, the Average fold-shift was 1.8 fold in test [2]; 6.6 fold in test [3]; 1.2 fold in test [4]; 1.0 fold in test [5]; 1.0 fold in test [6]; 3.0 fold and 3 fold in test [7].
